Format: physicochemical
Details: pH 7.4

**Q.** Which “Size (diameter, nm)” value does the source give for “KKKKKKKK-PEG4-(azide-DBCO)-(Ahx-(F′)10)2 [Compound 113]” here?
**A.** 17 nm

**Q.** With “KKKKKKKK-PEG4-(azide-DBCO)-Ahx-(F′)5 [Compound 110]” as the substance, how does the “Size (diameter, nm)” value read?
**A.** 1181 nm

**Q.** For “KKKKKKKK-PEG4-(azide-DBCO)-Ahx-(F′)10 [Compound 111]”, which “Size (diameter, nm)” value is on record?
**A.** 11 nm

**Q.** Which “Size (diameter, nm)” value does the source give for “KKKKKKKK-PEG4-(azide-DBCO)-Ahx-(F′)20 [Compound 112]” here?
**A.** 19 nm

**Q.** With “KKKKKKKK-PEG24-(azide-DBCO)-(Ahx-(F′)10)2 [Compound 117]” as the substance, how does the “Size (diameter, nm)” value read?
**A.** 26 nm

**Q.** For “KKKKKKKK-PEG24-(azide-DBCO)-Ahx-(F′)5 [Compound 114]”, which “Size (diameter, nm)” value is on record?
**A.** 49 nm

**Q.** With “KKKKKKKK-PEG24-(azide-DBCO)-Ahx-(F′)10 [Compound 115]” as the substance, how does the “Size (diameter, nm)” value read?
**A.** 16 nm

**Q.** With “KKKKKKKK-PEG24-(azide-DBCO)-Ahx-(F′)20 [Compound 116]” as the substance, how does the “Size (diameter, nm)” value read?
**A.** 21 nm
